The chains behind the UniProt entries cited, without tags or fusion partners.
UniProt Q16539, whole entry: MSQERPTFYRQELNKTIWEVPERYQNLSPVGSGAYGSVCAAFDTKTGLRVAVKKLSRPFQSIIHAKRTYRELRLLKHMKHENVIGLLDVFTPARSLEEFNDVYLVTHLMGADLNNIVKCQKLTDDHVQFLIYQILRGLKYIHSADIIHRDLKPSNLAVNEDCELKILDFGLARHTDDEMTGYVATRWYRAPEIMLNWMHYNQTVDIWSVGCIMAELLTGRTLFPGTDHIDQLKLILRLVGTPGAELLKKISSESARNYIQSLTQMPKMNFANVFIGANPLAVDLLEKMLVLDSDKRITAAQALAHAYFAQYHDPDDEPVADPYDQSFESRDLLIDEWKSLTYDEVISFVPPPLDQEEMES

According to BindingDB's records for doi:10.7270/Q2ZP44GN (Ambit Biosciences, 2008):

Biological target: Mitogen-activated protein kinase 14 (Homo sapiens, UniProt Q16539)

Molecule `NC(=O)c1ccc(-c2nc(-c3ccc4c(c3)OCO4)c(-c3ccccn3)[nH]2)cc1` [SB-431542] has a Kd of 0.17 µM.
